Measured affinities in a library of Ab-14 heavy chain variants

The target is the same throughout: PDVDLGDISGINAS, from the HR2 region of SARS-CoV-2 spike.

Ab-14 is the parent antibody, in scFv form: VH, then three GGGGS repeats, then VL. The light chain is unchanged in all variants.
VH: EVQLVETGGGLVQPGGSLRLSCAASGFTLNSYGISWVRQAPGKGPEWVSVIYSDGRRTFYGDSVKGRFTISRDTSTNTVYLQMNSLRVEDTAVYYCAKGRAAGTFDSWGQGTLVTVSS
VL: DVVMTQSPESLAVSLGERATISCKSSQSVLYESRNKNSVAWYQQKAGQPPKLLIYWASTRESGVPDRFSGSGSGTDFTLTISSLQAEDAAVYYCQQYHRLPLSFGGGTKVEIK

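The parent was found by panning a naive human phage display library on the peptide. This is the validation round: designs drawn from the data on random variants, tested in the same kind of assay. Group labels follow the data file (Rand: our label for a block that the file lists under HC and that is probably the random mutants of the ten best first-round binders; En: ensemble of fine-tuned language models; HC: hill climbing; Gen: genetic algorithm; Gibbs: Gibbs sampling; a sequence that several methods proposed may carry one label only). Affinity was read by AlphaSeq, a pooled yeast mating assay with surface-displayed partners. The frequency of each diploid, read from paired DNA barcodes, reflects how well the two displayed proteins bind. Read counts were normalised to the haploid input and turned into Kd by a linear fit to BCL2-family pairs of known affinity, for each replicate. The assay was run in six technical replicates.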

Each variant's VH is given in full. Variants here have more than six changes. The Kd shown is the geometric mean over detected replicates; a lower Kd is a better binder. "nd" means that the variant was in the library but no mating with the target was seen in any replicate; the authors take this as a sign of poor binding, and no number exists. Values of this round are not directly comparable with the first-round values of the same sequences.

Variant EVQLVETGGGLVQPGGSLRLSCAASGFDLNEYGVSWVRQAPGKGPEWVSVIYADGHRVQYTEDVKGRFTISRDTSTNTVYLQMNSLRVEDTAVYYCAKGGNSGAVDMWGQGTLVTVSS [En_Gibbs] gave 140 nM (1 of 6 replicates; controls 0 of 18).
Variant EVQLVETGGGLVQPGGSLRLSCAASGFDLGEYGISWVRQAPGKGPEWVSVIYADGRRFAYKNAVKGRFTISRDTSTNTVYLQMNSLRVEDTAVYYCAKGLVEGMLDIWGQGTLVTVSS [En_Gibbs] gave 8.3 nM (6 of 6 replicates; controls 1 of 18).
Variant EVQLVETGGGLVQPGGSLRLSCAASGDGLDEYGISWVRQAPGKGPEWVSVIYADGMRSSYSNDVKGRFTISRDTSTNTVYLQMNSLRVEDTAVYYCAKGTNFGIKMVWGQGTLVTVSS [En_Gibbs] gave nd (0 of 6 replicates; controls 0 of 18).
Variant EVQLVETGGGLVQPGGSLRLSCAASGFDLDEYGISWVRQAPGKGPEWVSVIYADGQRTYYADSVKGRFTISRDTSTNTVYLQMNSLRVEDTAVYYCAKGENAGTFDIWGQGTLVTVSS [En_Gen] gave 530 pM (6 of 6 replicates; controls 0 of 18).
Variant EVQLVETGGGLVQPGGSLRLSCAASGFDLNEYGISWVRQAPGKGPEWVSVIYADGMRTAYADKVKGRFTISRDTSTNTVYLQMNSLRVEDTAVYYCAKGNEAGTFDVWGQGTLVTVSS [En_Gen] gave 260 pM (6 of 6 replicates; controls 1 of 18).
Variant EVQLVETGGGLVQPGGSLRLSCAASGFNISEYGISWVRQAPGKGPEWVSVIYADGRRTAYKNTVKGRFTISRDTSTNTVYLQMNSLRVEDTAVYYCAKGNLTWLFDVWGQGTLVTVSS [En_Gibbs] gave nd (0 of 6 replicates; controls 0 of 18).
Variant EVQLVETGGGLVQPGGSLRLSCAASGFDLNEYGISWVRQAPGKGPEWVSVIYADGMRTAYSDNVKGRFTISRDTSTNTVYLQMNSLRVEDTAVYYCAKGQTAGTFDVWGQGTLVTVSS [En_Gen] gave 1.1 nM (6 of 6 replicates; controls 0 of 18).
Variant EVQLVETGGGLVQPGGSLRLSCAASGFGLMDYGISWVRQAPGKGPEWVSVIYADGKRRSYANSVKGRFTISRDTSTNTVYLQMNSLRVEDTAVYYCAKGAHAGTFDFWGQGTLVTVSS [En_Gibbs] gave nd (0 of 6 replicates; controls 0 of 18).
Variant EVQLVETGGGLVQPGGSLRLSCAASGFDLEDYGISWVRQAPGKGPEWVSVIYADGRRTFYADSVKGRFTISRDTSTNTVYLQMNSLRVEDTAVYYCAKGEVAGTFDVWGQGTLVTVSS [En_HC] gave 1.3 nM (6 of 6 replicates; controls 0 of 18).
Variant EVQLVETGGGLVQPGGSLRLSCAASGFDLNEYGISWVRQAPGKGPEWVSVIYADGLRTAYADSVKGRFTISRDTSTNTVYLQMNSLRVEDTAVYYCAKGQLAGTFDQWGQGTLVTVSS [En_HC] gave 230 pM (6 of 6 replicates; controls 0 of 18).
Variant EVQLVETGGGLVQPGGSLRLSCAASGFDLNEYGISWVRQAPGKGPEWVSVIYADGVRTQYIDSVKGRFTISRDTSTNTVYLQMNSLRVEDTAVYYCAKGNQAGTFDSWGQGTLVTVSS [En_HC] gave 1.1 nM (5 of 6 replicates; controls 0 of 18).
Variant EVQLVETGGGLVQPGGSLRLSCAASGFDLDEYGISWVRQAPGKGPEWVSVIYADGKRTFYADSVKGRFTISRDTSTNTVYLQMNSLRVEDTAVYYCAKGTLAGTFDAWGQGTLVTVSS [En_HC] gave 260 pM (6 of 6 replicates; controls 0 of 18).
Variant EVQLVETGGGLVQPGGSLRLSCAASGFDLNEYGISWVRQAPGKGPEWVSVIYADGLRTAYSDSVKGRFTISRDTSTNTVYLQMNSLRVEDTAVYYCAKGNVAGTFDIWGQGTLVTVSS [En_Gen] gave 1.3 nM (6 of 6 replicates; controls 1 of 18).
Variant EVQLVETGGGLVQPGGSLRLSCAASGFDLDEYGISWVRQAPGKGPEWVSVIYADGVRTAYADSVKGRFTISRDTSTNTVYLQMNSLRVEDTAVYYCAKGENAGTFDQWGQGTLVTVSS [En_Gen] gave 540 pM (6 of 6 replicates; controls 1 of 18).
Variant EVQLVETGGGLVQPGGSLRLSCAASGHTLNSYGISWVRQAPGKGPEWVSVIYADGRRTFYGAEVKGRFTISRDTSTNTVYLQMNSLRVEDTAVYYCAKSRAAGTNKSWGQGTLVTVSS [Rand] gave nd (0 of 6 replicates; controls 0 of 18).
Variant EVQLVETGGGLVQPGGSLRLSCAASGNDLDEFGISWVRQAPGKGPEWVSVIYADGSRASYADKVKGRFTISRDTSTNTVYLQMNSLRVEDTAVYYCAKGLNGGQLIVWGQGTLVTVSS [En_Gibbs] gave nd (0 of 6 replicates; controls 0 of 18).

2 of these entries, quoted again:

| VH | group | Kd | detected | control signals |
|---|---|---|---|---|
| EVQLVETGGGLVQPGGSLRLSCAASGHTLNSYGISWVRQAPGKGPEWVSVIYADGRRTFYGAEVKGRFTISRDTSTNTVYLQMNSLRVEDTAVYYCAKSRAAGTNKSWGQGTLVTVSS | Rand | nd | 0 of 6 | 0 of 18 |
| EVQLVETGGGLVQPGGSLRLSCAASGFDLEDYGISWVRQAPGKGPEWVSVIYADGRRTFYADSVKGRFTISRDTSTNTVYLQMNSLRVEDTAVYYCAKGEVAGTFDVWGQGTLVTVSS | En_HC | 1.3 nM | 6 of 6 | 0 of 18 |

Background: pairings of all heavy chain designs with three empty control strains gave a value in 1% of cases (median 120 nM, 5th percentile 7.0 nM). Values in that range, when seen in few replicates, are hard to tell from nonspecific mating. The control count says in how many pairings with the empty strains this scFv gave a signal. In the paper, a design with two or fewer of six values counts as a poor binder. The parent sequence was in this pool as ten entries: three were never detected, three once, and four in most replicates, with averages from 2.2 nM to 240 nM.

Data: MIT Lincoln Laboratory AlphaSeq set, Li et al. 2023, doi:10.1038/s41467-023-39022-2, as distributed in FLAb.